According to patent US10308938B2, “Compositions and methods to activate or inhibit toll-like receptor signaling” (priority 2014, dated 2019):

Key:
CD4^+ T cells = settings: concentrations up to 15 μg/ml IMQ; 4 days
memory T cells = assay: IMQ pretreatment, washout, rest and restimulation with anti-CD3 and anti-CD28; settings: upon IMQ pretreatment
Protocol: Enzyme-linked immunosorbent assay.
To determine if pretreatment of CD4^+ T cells with IMQ would be sufficient to diminish their subsequent cytokine secretion and proliferative response to a full stimulation, memory T cells were pre-treated with IMQ for 2 hours and rested for 12 hours after washout to remove traces of IMQ and then stimulated with anti-CD3 and anti-CD28 for 3 days.

## CC(C)Cn1cnc2c(N)nc3ccccc3c21 [Imiquimod]
CD4^+ T cells
  cell viability: no effect
Memory T cells
  cell viability: No significant changes
